Antibody variant affinities, Ab-14 light chain, assay B

Source: Li et al. 2023 (doi:10.1038/s41467-023-39022-2), MIT Lincoln Laboratory and A-Alpha Bio; data file from the FLAb repository.

Binding partner: SARS-CoV-2 spike HR2 peptide, sequence PDVDLGDISGINAS.

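Designed CDR sequences, proposed from the first random library and measured here. Several design methods are mixed in this list. Affinity was read by AlphaSeq, a pooled yeast mating assay with surface-displayed partners. Mating (16 h, 30 °C) was followed by selection of diploids and sequencing of their barcodes. Each replicate has its own calibration line, from reference interactions of the BCL2 family. Mating was done six times.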

Each scFv is VH, the linker GGGGSGGGGSGGGGS, VL, as in the parent Ab-14, and differs from it in the CDRs of the light chain only.
VH: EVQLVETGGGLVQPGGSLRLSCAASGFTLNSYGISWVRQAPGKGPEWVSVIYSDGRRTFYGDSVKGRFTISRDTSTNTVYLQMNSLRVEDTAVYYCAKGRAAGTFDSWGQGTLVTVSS
VL: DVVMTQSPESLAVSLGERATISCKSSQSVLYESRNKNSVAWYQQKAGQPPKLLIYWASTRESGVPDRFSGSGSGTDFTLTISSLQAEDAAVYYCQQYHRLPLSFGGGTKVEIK

Each variant is given by its three light chain CDRs, as the data file delimits them; those of the parent are KSSQSVLYESRNKNSVA, WASTRES, QQYHRLPLS.
Each Kd is an estimate from the mating assay, the geometric mean of the replicates in which the pair was seen; lower is stronger.
A pair that was not seen in any replicate is written "nd"; this usually means weak binding, but a binder can also be missed.
The parent sequence was in this pool as ten entries: three were never detected, three once, and four in most replicates, with averages from 2.2 nM to 240 nM.
Values of this round are not directly comparable with the first-round values of the same sequences.
As a blank, each scFv also met three strains without target: over all light chain designs, 4% of these pairings were detected, typically at 430 nM and seldom below 38 nM.
In the paper, a design with two or fewer of six values counts as a poor binder.

CDR-L1 | CDR-L2 | CDR-L3 | Kd (apparent) | detected
KSSYSYLGESRNKNSVA | EASTRES | QQYHRLPLS | 570 pM | 6 of 6
KLSEFMRGLMGRKDSIA | DNNTRGA | QQYDRLPLS | 64 nM | 1 of 6
TISNSFMMENHFKNSVA | QASTRES | QCYDRLPLS | 16 nM | 6 of 6
KVSQSWLYESRVKNSVA | NASQRES | QQYHRLPLS | 620 pM | 6 of 6
ALEMDTLGQKPKQNNIA | NARVSWE | QQYYMLPLS | 64 nM | 5 of 6
KMSMSVLYEDRHQNSVA | NASTRLD | QQYHRLPLS | 2.3 nM | 6 of 6
KLSQSVPYESRMKNSVA | NASTRMS | QQYHRLPLS | 740 pM | 6 of 6
KSSQSVLNESANKNSVA | WASTRES | QQYHRLPLS | 13 nM | 6 of 6
KLSQVTHSESRNKNSIA | EMVTREM | QQYDRLPLS | 3.8 nM | 6 of 6
QISLNGWDGTKKEEAVA | EGTKRDA | QQYSRLPLS | 1.5 nM | 6 of 6
KVSQSHLYESRNGNSVA | NASTREH | QQYHRLPLS | 990 pM | 6 of 6
KSSQSVLYESSNKNSVA | WASTRES | QQYHRLPLS | 14 nM | 6 of 6
HMSMLTLGGMRNRNSVA | QMTTREN | QQYDRLPLA | 180 nM | 3 of 6
MISNVMNTLSRQGNNVA | DLAERER | QQYFRLPLS | 29 nM | 4 of 6
HISQMVMYGSCNKNNVA | QVSVREE | QQYHRLPLS | 3.1 nM | 6 of 6
KLRMTTGYESRNKDSIA | DNSTRGR | QQYHRLPLS | 420 nM | 2 of 6
VLHNTCSDYDMYRNSIA | DAQHREN | QQYYRLPFT | 2.7 nM | 6 of 6
TLTQSVGMETHNKNSVA | DLSTRGS | QQYHRLPLS | 1.6 nM | 6 of 6
KVMYFNEQVSLKGSNVA | DNETRER | QQYFRLPLS | 760 pM | 6 of 6
HQSPSVLYESRNKNSVA | NGSTRED | QQYHRLPLS | 370 pM | 6 of 6
KHSISVMGEDRNKNSVA | DASTRES | QQYHRLPLS | 980 pM | 6 of 6
KLQQSWLYESRNKNSVA | SASQRES | QQYHRLPLS | 2.7 nM | 6 of 6
KSSQSFLYESRNKNSVD | GASTRES | QEYHRGTLS | 33 nM | 1 of 6
KVEFSVDYESRNKNAVA | QASTREK | QQYHRLPLS | 590 pM | 6 of 6
KLSQSYLYESRNKNSVA | EASTREV | QQYHRLPLS | 330 pM | 6 of 6
KLQFLVLYESRNKNSVA | DASTRFS | QAYHRLPLS | 17 nM | 3 of 6
MISFLTMYGSRNKNSVA | DLSTRGS | QQYHRLPLS | 2.6 nM | 6 of 6
RVTNELGKEMERKQSVA | ETEQRCM | QQYARLPLI | 3.2 nM | 6 of 6
KGSQSWLYESRNFWSVA | GASTRES | QQYHRLPLS | 32 nM | 5 of 6
KILQSVLYESRNKNSVA | HASTRED | QQYHRLPLS | 860 pM | 6 of 6
TIGSTLMYGMRQRNNVA | EVSERLN | QQYDRLPLL | 5.5 nM | 6 of 6
KVEQSELYESRNKNSVA | NASQRES | QQYHRLPLS | 1.1 nM | 6 of 6
MISQVMNTLTREGNNVA | DLAERES | QQYFRLPLS | nd | 0 of 6
KLQISVEYESRNQNSVA | SASYRLD | QQYHRLPLS | 51 nM | 2 of 6
KSSQSVLSESRNKNNVA | WASTRES | QQYHRLPLS | 52 nM | 6 of 6
KVSQSVLYESRNKNSVA | DASTRSS | QQYHRLPLS | 580 pM | 6 of 6
KSPQSVLYESQNKNSVA | WASTRES | QQYWRLPLS | 97 nM | 5 of 6
QLLMATMQESYNKNSVA | HAETRED | QSYHRLPLS | 250 nM | 3 of 6
KMSQSVLYESRNMNSVA | WASTREA | QQYHRLPLS | 3.5 nM | 6 of 6
HISMLTLQGMRHRNSVA | QMTTREN | QQYDHLPLS | 90 nM | 3 of 6
KISQMVRVGSTHGNSIA | EEATRAK | QQYHRLPLS | 5.2 nM | 6 of 6
KLSYSSLYESRNKNSVA | WASTRCS | QQHHRLPLS | nd | 0 of 6
KSHQSFLYNSRNKNSVA | WATTRES | QQYHRLPLS | nd | 0 of 6
KSSQSVLYESKNKNSVA | WASTRES | QQYHHLPLE | 1.6 µM | 4 of 6
KLSQSVLYEQQNWNQVA | ESSTRMS | QQYHRLPLS | 1.1 nM | 6 of 6
KLPQSTLYESRMKNSVA | NASTRES | QQYHRLPLS | 1.5 nM | 6 of 6
KQSQSVLGEQRNKNSVA | DASTRES | QQYHRLPLS | 540 pM | 6 of 6
KLEQSQNYESRNKNSVA | NASTRES | QQYHRLPLS | 770 pM | 6 of 6
KLVQFMNRGTHHTSNIA | DAQNRLD | QQYARLPLA | 2.5 nM | 6 of 6
MISQLFMYGSRQYNSVA | QASTRES | QQYDRLPLI | 2.6 nM | 6 of 6
KSSQSVLYESRNINSVA | WASTREF | QQYHRLPLS | 97 nM | 6 of 6
KSSQSVLMESRNINSVA | WASTRES | QQYHRLPLS | 35 nM | 6 of 6
KSPQSLLYESRNKNSVA | WASTRES | QQYHRLPLS | nd | 0 of 6
TIGQTLMYGMRNRSNVA | EVSQRLN | QQYDRLPLM | 9.6 nM | 6 of 6
TISDLMGHVMKQTNNVA | DMDTRGD | QQYNRLPLS | 1.4 nM | 6 of 6
MFSQSVMYGSFMRNSVA | QTSTREN | QQYDRLPLS | 3.0 nM | 6 of 6
KSQQQYCYGDRNWNSVA | NASQRED | QQYHRLPLS | 1.0 nM | 6 of 6
KMSQSQLYEERASNAVA | QASQRES | QQYHRLPLS | 820 pM | 6 of 6
KHSQEKLYESRNKNSVA | DASTRES | QQYHRLPLS | 850 pM | 6 of 6
QIYQAMHTLSQVKDNVA | DVNERGS | QQYFRLPLS | 4.5 nM | 6 of 6
ILNLSPMGHQIHMDAIA | QEAIRNV | QQYARLPLS | 34 nM | 5 of 6
KVSQSVLQGDRNKSSVA | EASTRER | QQYHRLPLS | 11 nM | 5 of 6
KSSQSVLYESRNKNSVA | EATTRES | QQYHRLPLS | 11 nM | 6 of 6
KVSISYLLESRNKNSVA | SASTRES | QQYHRLPLS | 8.6 nM | 6 of 6
KSGQYVLYTSRNKNSVA | GASTRES | QQYTRLPLS | 11 nM | 6 of 6
FMQMDNDRMNDAAKNIA | DVDMRET | QQYARLPFM | 6.2 nM | 5 of 6
KLQQSVEYESRNKNSVA | NASQRES | QQYHRLPLS | 740 pM | 6 of 6

The last 5 entries again:

CDR-L1 | CDR-L2 | CDR-L3 | Kd (apparent) | detected
KSSQSVLYESRNKNSVA | EATTRES | QQYHRLPLS | 11 nM | 6 of 6
KVSISYLLESRNKNSVA | SASTRES | QQYHRLPLS | 8.6 nM | 6 of 6
KSGQYVLYTSRNKNSVA | GASTRES | QQYTRLPLS | 11 nM | 6 of 6
FMQMDNDRMNDAAKNIA | DVDMRET | QQYARLPFM | 6.2 nM | 5 of 6
KLQQSVEYESRNKNSVA | NASQRES | QQYHRLPLS | 740 pM | 6 of 6